Each structure is given as a SMILES string.

This assay concerns the target Protease (Human immunodeficiency virus 1, UniProt Q9YQ12). Description: Inhibition of Wild type HIV1 Protease by FRET based assay.
By Ki is commonly meant a dissociation constant, usually derived from enzyme kinetics or from competition with a known ligand. Lower therefore signals a stronger hold on the target. Turning to `CC(C)[C@@H](C(=O)N[C@@H](Cc1ccccc1)C[C@H](O)[C@H](Cc1ccccc1)NC(=O)[C@@H]1CN(c2ccccc2)C(=O)O1)N1CCCNC1=O`, the inhibitory constant (Ki) came out at 2.04 nM.

Molecule `CC(=O)N[C@H](C(=O)N[C@@H](Cc1ccccc1)C[C@H](O)[C@H](Cc1ccccc1)NC(=O)[C@@H]1CN(c2ccccc2)C(=O)O1)C(C)C` returned a Ki of 0.85 nM. This Ki is about 2.4-fold lower than that of the molecule before.

As to `CC(=O)N[C@H](C(=O)N[C@@H](Cc1ccccc1)C[C@H](O)[C@H](Cc1ccccc1)NC(=O)[C@H]1CN(c2ccccc2)C(=O)O1)C(C)C`, the inhibition constant (Ki) is 131 nM. This Ki lies about 150-fold higher than the previous one.

The values are drawn from ChEMBL document CHEMBL1148771, “Design and synthesis of HIV-1 protease inhibitors incorporating oxazolidinones as P2/P2' ligands in pseudosymmetric dipeptide isosteres” (J Med Chem, 2007).
